Experiment [1] addresses T1, Sodium channel protein type 9 subunit alpha (Homo sapiens, UniProt Q15858). Put plainly: Inhibition of human Nav1.7 alpha subunit expressed in HEK293 cells co-expressing beta1 subunit at -60 mV holding potential by whole-cell patch voltage clamp electrophysiology recording. The experiment is classed as cell-based.
Experiment [2] deals with T1, Sodium channel protein type 9 subunit alpha. Put plainly: Displacement of [3H]GX-545 from human Nav1.7 alpha subunit expressed in HEK293 cells co-expressing beta1 subunit by liquid scintillation counting analysis. In kind it is cell-based.

By UniProt entry, the sequences of proteins in these tests, tags left out.
UniProt Q15858, whole entry: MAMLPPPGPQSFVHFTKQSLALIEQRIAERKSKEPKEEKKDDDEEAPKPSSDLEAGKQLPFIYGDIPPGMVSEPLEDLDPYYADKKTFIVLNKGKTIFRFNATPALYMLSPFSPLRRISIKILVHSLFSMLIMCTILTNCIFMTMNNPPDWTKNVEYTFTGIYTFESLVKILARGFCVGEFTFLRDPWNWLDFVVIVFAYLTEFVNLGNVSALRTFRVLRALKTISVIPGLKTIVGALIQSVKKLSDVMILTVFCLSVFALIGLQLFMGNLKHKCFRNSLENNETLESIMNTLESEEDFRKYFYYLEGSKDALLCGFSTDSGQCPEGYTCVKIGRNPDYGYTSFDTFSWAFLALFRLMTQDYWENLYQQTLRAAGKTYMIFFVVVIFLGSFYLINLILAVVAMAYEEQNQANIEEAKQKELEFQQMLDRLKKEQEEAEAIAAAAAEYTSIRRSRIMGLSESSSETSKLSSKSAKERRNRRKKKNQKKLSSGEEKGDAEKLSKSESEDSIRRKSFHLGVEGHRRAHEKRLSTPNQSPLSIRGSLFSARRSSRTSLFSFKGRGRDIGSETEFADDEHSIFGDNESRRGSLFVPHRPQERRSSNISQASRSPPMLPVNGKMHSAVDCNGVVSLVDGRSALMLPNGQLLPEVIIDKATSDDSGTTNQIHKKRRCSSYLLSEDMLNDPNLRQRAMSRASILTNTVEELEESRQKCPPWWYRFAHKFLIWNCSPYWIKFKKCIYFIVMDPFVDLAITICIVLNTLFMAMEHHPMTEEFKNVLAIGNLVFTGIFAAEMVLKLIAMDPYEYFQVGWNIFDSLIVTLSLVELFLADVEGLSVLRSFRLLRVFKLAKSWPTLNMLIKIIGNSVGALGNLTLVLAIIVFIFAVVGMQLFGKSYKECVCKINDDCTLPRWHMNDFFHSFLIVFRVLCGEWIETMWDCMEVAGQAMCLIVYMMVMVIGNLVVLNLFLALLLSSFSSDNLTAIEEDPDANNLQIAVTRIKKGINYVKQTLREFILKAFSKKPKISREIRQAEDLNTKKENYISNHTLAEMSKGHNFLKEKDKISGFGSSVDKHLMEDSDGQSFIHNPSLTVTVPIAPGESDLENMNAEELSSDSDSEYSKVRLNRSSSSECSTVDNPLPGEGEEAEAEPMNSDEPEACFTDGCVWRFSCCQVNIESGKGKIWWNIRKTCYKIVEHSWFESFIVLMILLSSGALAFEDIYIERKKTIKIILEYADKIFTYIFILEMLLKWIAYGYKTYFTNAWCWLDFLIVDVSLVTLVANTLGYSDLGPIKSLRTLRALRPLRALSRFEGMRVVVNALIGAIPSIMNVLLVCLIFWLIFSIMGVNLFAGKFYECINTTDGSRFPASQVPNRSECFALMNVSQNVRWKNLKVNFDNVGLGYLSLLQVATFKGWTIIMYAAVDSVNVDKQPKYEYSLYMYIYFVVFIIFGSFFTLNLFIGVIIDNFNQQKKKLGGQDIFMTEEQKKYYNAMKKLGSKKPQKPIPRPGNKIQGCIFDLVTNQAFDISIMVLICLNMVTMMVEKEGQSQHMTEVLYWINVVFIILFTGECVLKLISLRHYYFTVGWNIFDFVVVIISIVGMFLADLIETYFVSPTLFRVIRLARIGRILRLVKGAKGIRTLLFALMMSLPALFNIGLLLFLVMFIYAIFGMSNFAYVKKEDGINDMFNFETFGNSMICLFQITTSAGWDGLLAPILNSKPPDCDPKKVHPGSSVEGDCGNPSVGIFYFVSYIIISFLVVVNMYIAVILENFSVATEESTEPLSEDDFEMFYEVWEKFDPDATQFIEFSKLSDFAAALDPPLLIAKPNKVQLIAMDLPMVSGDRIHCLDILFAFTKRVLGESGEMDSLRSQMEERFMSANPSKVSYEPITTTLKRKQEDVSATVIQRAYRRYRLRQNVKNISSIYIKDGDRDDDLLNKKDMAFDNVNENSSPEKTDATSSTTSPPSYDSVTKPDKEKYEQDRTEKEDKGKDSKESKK

`CC1(COc2cc(F)c(C(=O)NS(=O)(=O)C3CC3)cc2C2CC2)CCC(F)(F)CC1`: the IC50 was 3 nM in experiment [1] and 15 nM in experiment [2].

Source of the values: ChEMBL document CHEMBL5260838 (J Med Chem, 2019).
